Assay results: BindingDB's records for 15780631 (Universit&#224, 2005)

The chains behind the UniProt entries cited, without tags or fusion partners. Residues count along the entry.
UniProt P22748, 19-284 limits assumed: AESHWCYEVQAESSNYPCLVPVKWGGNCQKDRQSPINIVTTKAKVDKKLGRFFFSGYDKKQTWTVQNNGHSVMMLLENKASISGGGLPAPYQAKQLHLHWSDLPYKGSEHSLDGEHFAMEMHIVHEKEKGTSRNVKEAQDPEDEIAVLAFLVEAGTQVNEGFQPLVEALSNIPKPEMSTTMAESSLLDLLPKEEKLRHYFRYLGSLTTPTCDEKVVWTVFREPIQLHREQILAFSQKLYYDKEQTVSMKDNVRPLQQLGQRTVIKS
UniProt P35218, 39-305 limits assumed: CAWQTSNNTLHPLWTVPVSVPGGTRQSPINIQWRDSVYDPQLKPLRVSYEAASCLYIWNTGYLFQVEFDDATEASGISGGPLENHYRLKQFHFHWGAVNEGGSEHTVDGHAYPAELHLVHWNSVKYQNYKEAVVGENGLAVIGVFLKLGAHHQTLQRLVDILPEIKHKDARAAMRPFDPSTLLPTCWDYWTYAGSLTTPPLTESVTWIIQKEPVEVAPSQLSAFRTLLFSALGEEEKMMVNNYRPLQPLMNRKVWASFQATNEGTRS
UniProt P00915, 2-261 limits assumed: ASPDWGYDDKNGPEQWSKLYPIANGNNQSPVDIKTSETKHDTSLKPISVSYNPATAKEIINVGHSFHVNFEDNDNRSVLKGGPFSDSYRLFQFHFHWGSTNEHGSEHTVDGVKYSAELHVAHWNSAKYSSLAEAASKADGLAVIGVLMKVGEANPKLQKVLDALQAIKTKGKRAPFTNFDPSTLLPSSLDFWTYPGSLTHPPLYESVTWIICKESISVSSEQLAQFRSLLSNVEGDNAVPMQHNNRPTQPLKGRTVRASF

Experiments:
[1] = molecular target: Carbonic anhydrase 4 (Homo sapiens, UniProt P22748); test: Inhibitory constant against human isozymes carbonic anhydrase IV for the CO2 hydration reaction at 20 degree C
[2] = molecular target: Carbonic anhydrase 5A, mitochondrial (Homo sapiens, UniProt P35218); test: Inhibitory constant against human isozymes carbonic anhydrase V for the CO2 hydration reaction at 20 C
[3] = molecular target: Carbonic anhydrase 9 (Homo sapiens, UniProt Q16790); test: Inhibitory constant against human isozymes carbonic anhydrase IX for the CO2 hydration reaction at 20 C
[4] = molecular target: Carbonic anhydrase 2 (Homo sapiens, UniProt P00918); test: Inhibitory constant against human isozymes carbonic anhydrase II for the CO2 hydration reaction at 20 C
[5] = molecular target: Carbonic anhydrase 1 (Homo sapiens, UniProt P00915)

| Compound | Ki [1] | Ki [2] | Ki [3] | Ki [4] | Ki [5] |
| --- | --- | --- | --- | --- | --- |
| [F][Nb-2]([F])([F])([F])([F])([F])[F] [[NbF7]2-] | 0.5 mM | 0.44 mM | – | – | – |
| [F][Fe-3]([F])([F])([F])([F])[F] [hexafluoridoferrate(3-)hexafluoridoferrate(III)] | 0.34 mM | 2.71 mM | 1.62 mM | – | – |
| AsF6-::CHEMBL181880 | 5.5 mM | 75.6 mM | 7.9 mM | 9.4 mM | – |
| [Cl][Pt-2]([Cl])([Cl])([Cl])([Cl])[Cl] | 17.4 mM | 10.8 mM | 3.63 mM | – | 13.8 mM |
| [Cl][Pt-2]([Cl])([Cl])[Cl] | 27.5 mM | 41.7 mM | 35.2 mM | – | 0.37 mM |
